Ki data for 15 compounds are collected here from ChEMBL document CHEMBL1147615, “Design and synthesis of novel small molecule N/OFQ receptor antagonists” (2004).

The chains behind the UniProt entries cited, without tags or fusion partners. Where a name states a change or a piece, a line headed by the entry shows the natural chain unless it says otherwise.
UniProt P41146: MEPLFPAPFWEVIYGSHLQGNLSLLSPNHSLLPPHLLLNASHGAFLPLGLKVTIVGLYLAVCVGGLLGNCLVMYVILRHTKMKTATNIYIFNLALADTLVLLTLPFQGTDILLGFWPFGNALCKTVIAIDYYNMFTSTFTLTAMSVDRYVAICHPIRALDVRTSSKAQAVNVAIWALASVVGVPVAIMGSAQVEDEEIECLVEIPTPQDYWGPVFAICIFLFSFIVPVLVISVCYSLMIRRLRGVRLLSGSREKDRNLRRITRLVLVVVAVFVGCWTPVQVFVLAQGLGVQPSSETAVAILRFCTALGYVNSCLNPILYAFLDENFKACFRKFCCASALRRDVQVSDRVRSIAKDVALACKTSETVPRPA
UniProt P41145: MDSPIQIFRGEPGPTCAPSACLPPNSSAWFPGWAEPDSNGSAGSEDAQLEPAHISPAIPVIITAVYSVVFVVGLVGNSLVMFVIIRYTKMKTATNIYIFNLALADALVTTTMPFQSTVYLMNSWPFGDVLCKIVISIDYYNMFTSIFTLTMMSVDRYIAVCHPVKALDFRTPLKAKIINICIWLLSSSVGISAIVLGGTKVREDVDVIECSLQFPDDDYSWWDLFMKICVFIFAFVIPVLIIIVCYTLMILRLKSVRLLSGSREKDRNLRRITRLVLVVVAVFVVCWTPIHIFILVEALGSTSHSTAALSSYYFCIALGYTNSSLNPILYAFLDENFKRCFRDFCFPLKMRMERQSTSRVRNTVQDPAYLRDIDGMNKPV
UniProt P35372, whole entry, looked up: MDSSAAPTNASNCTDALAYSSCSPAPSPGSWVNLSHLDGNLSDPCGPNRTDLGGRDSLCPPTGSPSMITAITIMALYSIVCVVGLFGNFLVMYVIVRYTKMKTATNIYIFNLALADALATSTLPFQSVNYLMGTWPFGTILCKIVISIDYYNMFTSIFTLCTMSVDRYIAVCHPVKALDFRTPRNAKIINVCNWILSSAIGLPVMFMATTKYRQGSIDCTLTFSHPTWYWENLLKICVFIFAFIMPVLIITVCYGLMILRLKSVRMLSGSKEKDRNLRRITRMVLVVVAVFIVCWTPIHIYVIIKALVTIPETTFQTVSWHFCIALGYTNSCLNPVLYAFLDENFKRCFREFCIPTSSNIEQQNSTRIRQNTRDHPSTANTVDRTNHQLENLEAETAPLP
UniProt P41143, whole entry, looked up: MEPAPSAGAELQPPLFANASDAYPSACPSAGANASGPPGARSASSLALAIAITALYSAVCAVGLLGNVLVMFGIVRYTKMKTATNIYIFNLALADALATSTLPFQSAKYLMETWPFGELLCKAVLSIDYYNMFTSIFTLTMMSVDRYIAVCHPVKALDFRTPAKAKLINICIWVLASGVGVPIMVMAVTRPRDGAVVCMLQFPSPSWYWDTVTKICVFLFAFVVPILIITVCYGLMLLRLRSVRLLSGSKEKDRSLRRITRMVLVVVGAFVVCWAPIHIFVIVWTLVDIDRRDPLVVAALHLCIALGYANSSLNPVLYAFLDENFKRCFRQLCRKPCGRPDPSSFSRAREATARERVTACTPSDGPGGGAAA

Assay [1] has as its target Nociceptin receptor (Homo sapiens, UniProt P41146). The assay is described as follows: Binding affinity towards Nociceptin/orphanin FQ (N/OFQ) receptor from recombinant HEK293 cell membranes was determined using binding assay.
Assay [2] deals with Kappa-type opioid receptor (Homo sapiens, UniProt P41145). The assay is described as follows: Tested for the opioid receptor kappa 1 binding affinity using membrane preparations from recombinant HEK293 cells with [3H]U-69593 radioligand.
Assay [3] deals with Mu-type opioid receptor (Homo sapiens, UniProt P35372). Put plainly: Binding affinity towards opioid receptor mu 1 using [3H]- diprenophine as radioligand from membrane preparations of recombinant HEK293 cells.
In assay [4] the target is Delta-type opioid receptor (Homo sapiens, UniProt P41143). Put plainly: Tested for the opioid receptor delta 1 binding affinity using membrane preparations from recombinant HEK293 cells with [3H]naltrindole radioligand.

One may read the Ki as a dissociation constant, usually derived from enzyme kinetics or from competition with a known ligand.

SMILES strings stand for the structures. Some results are limits rather than exact numbers.

In the case of `O=C1N[C@@H]2CCCC[C@H]2N1C1CCN(CC2CCCCCCC2)CC1`, the inhibition constant Ki in assay [1] was determined as 16 nM; in assay [2], 1.7 µM; in assay [3] it was 1070 nM; in assay [4], 6.53 µM.
On to `CCN1C(=O)N(C2CCN(C3CCC4CCCCC4C3)CC2)[C@@H]2CCCC[C@H]21` (stereo partly drawn), for which, in assay [2], the Ki was over 10 µM.
As for `O=C1N[C@@H]2CCCC[C@H]2N1C1CCN(CCC(c2ccccc2)c2ccccc2)CC1`, the Ki was 437 nM in assay [1] and 27 nM in assay [3].
In the case of `CC(C)CCC(C)N1CCC(N2C(=O)N[C@@H]3CCCC[C@H]32)CC1` (stereo partly drawn), the inhibitory constant (Ki) turned out to be 414 nM in assay [1] and 426 nM in assay [3].
For the compound `CCN1C(=O)N(C2CCN(C3CCC(C(C)C)CC3)CC2)[C@@H]2CCCC[C@H]21` (stereo partly drawn), the inhibitory constant (Ki) was 89 nM in assay [1], over 10 µM in assay [2], 421 nM in assay [3] and over 10 µM in assay [4].
As to `CCN1C(=O)N(C2CCN(CC3CCCCCCC3)CC2)[C@@H]2CCCC[C@H]21`, the inhibition constant (Ki) was 11 nM in assay [1], over 10 µM in assay [2], 448 nM in assay [3] and over 10 µM in assay [4].
`CCN1C(=O)N(C2CCN(CCC(c3ccccc3)c3ccccc3)CC2)[C@@H]2CCCC[C@H]21`: the values for the inhibitory constant (Ki) in assay [1] and in assay [3] were 4360 nM and 267 nM, respectively.
Consider `CC(C)C1CCC(N2CCC(N3C(=O)N[C@@H]4CCCC[C@H]43)CC2)CC1` (stereo partly drawn), for which the Ki in assay [1] was 39 nM; in assay [2], 6.21 µM; in assay [3], 959 nM; in assay [4], over 10 µM.
On to `O=C1N[C@@H]2CCCC[C@H]2N1C1CCN(Cc2ccccc2)CC1`, for which the inhibition constant Ki in assay [1] was 1050 nM.
As for `O=C1N[C@@H]2CCCC[C@H]2N1C1CCN(C2CCC3CCCCC3C2)CC1` (stereo partly drawn), the inhibitory constant (Ki) in assay [1] was 51 nM; in assay [2], 1.39 µM; in assay [3] it was 208 nM; in assay [4], over 10 µM.
In the case of `CCN1C(=O)N(C2CCN(C(C)CCC(C)C)CC2)[C@@H]2CCCC[C@H]21` (stereo partly drawn), the inhibition constant Ki in assay [1] came to 410 nM; in assay [3], 395 nM.
For the compound `CCCC1CCC(N2CCC(N3C(=O)N(CC)[C@@H]4CCCC[C@H]43)CC2)CC1` (stereo partly drawn), the inhibition constant Ki in assay [1] was determined as 1240 nM; in assay [3], 2170 nM.
As for `CCN1C(=O)N(C2CCN(Cc3ccccc3)CC2)[C@@H]2CCCC[C@H]21`, the Ki worked out at 692 nM in assay [1] and 716 nM in assay [3].
`CCN1C(=O)N(C2CCN(Cc3ccc4ccccc4c3)CC2)[C@@H]2CCCC[C@H]21`: the inhibitory constant (Ki) in assay [1] is 824 nM; in assay [3], 199 nM.
The like results for `O=C1N[C@@H]2CCCC[C@H]2N1C1CCN(C2CCCCCCC2)CC1` were, in that order, 125 nM and 1400 nM.
